The text below walks through data of ChEMBL document CHEMBL1143618, “Discovery of a beta-MSH-derived MC-4R selective agonist” (J Med Chem, 2005).

The chains behind the UniProt entries cited, without tags or fusion partners.
UniProt P32245, whole entry: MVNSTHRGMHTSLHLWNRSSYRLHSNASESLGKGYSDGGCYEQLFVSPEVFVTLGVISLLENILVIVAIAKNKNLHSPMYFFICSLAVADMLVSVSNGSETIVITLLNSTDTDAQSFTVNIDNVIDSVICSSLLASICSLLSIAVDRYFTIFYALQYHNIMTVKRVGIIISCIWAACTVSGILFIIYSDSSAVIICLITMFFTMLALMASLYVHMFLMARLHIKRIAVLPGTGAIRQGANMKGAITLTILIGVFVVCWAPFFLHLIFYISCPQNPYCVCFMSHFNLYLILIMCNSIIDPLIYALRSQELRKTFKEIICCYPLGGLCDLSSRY

The target in the experiment is Melanocortin receptor 4 (Homo sapiens, UniProt P32245). As to the kind of experiment: Agonist activity at human Melanocortin-4 receptor as peptide required for 50% maximal cAMP release (n > or =2). In kind it is functional.

Molecules are shown by their SMILES.

For orientation: EC50 means the concentration that produces a half-maximal response. Lower therefore signals an effect from little substance. Compound `CC(=O)N[C@H](CCCNC(=N)N)C(=O)N[C@H]1CSSC[C@@H](C(N)=O)NC(=O)[C@H](Cc2c[nH]c3ccccc23)NC(=O)[C@H](CCCNC(=N)N)NC(=O)[C@@H](Cc2ccccc2)NC(=O)[C@H](Cc2c[nH]cn2)NC(=O)[C@H](CCC(=O)O)NC1=O` had an EC50 of 0.28 nM.
The result for `CC(=O)N[C@@H](CCCNC(=N)N)C(=O)N[C@H]1CSSC[C@@H](C(N)=O)NC(=O)[C@H](Cc2c[nH]c3ccccc23)NC(=O)[C@H](CCCNC(=N)N)NC(=O)[C@@H](Cc2ccccc2)NC(=O)[C@H](Cc2c[nH]cn2)NC(=O)[C@H](CCC(=O)O)NC1=O` reads 0.26 nM.
